# HCMV NEC inh: inhibitors of HCMV UL50-UL53 interaction, biochemical, HTRF; HCMV UL50-UL53 nuclear egress complex (human cytomegalovirus); normalized percent inhibition; inhibition, % (no concentration beside the values); actives 0.15% (n = 190,000); in the data active = inhibition above about 27%, passing the limit was not always enough
# GIV-Gai inh: blocks GIV peptide binding to rat Galpha-i3. P08753. Galpha-i3/FITC-GIV peptide fluorescence polarization, 90 min; stronger effect = lower value; scaled: aluminum fluoride 0%, vehicle 100%. percent of control (FP), % (test concentration not listed). 0.42% of 210,000 active. AID 1224905;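 active = replicate mean at 85% of control or lower, very high polarization wells dropped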;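 also: wells of about 15 µL received 100 nL stock; the first replicate is given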
# Numbers without * were called inactive; nt = not tested or not shown. This is one part of a sample in which hits are shown more often than they occur.
structure	HCMV NEC inh	GIV-Gai inh
COc1ccccc1N1CCN(Cc2cccc3ccccc23)CC1	-16	102
CCOC(=O)C1CCCN(C(=O)c2ccc3c(c2)NC(=O)c2ccccc2S3)C1 (stereo not drawn)	nt	107
CN(C)/C=C/C=C1\CCc2ccccc2C1=O	nt	-73*
CN(C)/C=C/C=C1\CC/C(=C\C=C\N(C)C)C1=O	21	155
CC(=O)N/C(=C\c1ccccc1)C(=O)NCc1ccco1	-23	99
COC(=O)C1=C(C)NC(=O)/C1=C\c1cccc2ccccc12	nt	113
O=C1/C(=C/c2cccc3ccccc23)Nc2ccccc21	-9	57*
COc1cc(-c2c(C#N)c(SCC#N)nc(N)c2C(=O)OC(C)C)cc(OC)c1OC	63*	nt
CCOc1ccc(-c2c(C#N)c(N)nc(SCC#N)c2C#N)cc1	-11	nt
O=C1c2ccccc2NC2(C(=O)N(Cc3cccc4ccccc34)c3ccccc32)N1c1ccccc1 (stereo not drawn)	nt	104
COc1ccc(Cl)cc1S(=O)(=O)N1CCC(c2nnc(-c3ccc(C)cc3)o2)CC1	-18	100
Cc1cc(=O)[nH]c(O)c1C(=O)O	65*	93
Cc1cc(C)n(C)c(=O)c1C(=O)O	nt	103
CC(C)(C)/C(O)=C/c1nc2ccccc2oc1=O	nt	103
O=c1oc2ccc(Cl)cc2nc1/C=C(\O)c1ccco1	-7	2.2*
Cc1nc(C)c(/C(O)=C/c2nc3cc(Cl)ccc3oc2=O)o1	nt	111
O=c1oc2ccccc2nc1/C=C(\O)c1ccccc1	4	46*
O=c1[nH]ncc(N2CCc3ccccc3C2)c1Cl	-20	103
CCOC(=O)C1=C(C)NC2(O)c3ccccc3C(=O)C12O (stereo not drawn)	nt	103
CC1=C(C(=O)OCc2ccccc2)C2(O)C(=O)c3ccccc3C2(O)N1 (stereo not drawn)	66*	nt
Brc1cn2c(Nc3ccc4c(c3)OCO4)c(-c3ccccc3)nc2cn1	nt	102
Nc1nnc2cc(C(=O)c3cc(F)ccc3O)cnn12	-10	nt
Cc1ccc(O)c(C(=O)c2cnn3c(N)nnc3c2)c1	51*	nt
Cc1ccc(NC(=O)CC2SC(=O)N(CN3CCOCC3)C2=O)cc1 (stereo not drawn)	-53	106
O=C(Nc1ccc(-c2cn3c(C(=O)N4CCCC4)csc3n2)cc1)c1ccccc1F	nt	108
CC(=O)N(C(C)=O)N1C(=O)c2cccc3c(N4CCOCC4)ccc(c23)C1=O	-97	165
O=C1c2cccc3c(N4CCCCC4)ccc(c23)C(=O)N1c1ccccn1	-120	-29*
CC(=O)Nc1ccccc1-c1nnc(SC(C)C(=O)Nc2ccc(F)cc2)[nH]c1=O (stereo not drawn)	-27	98
CCOC(=O)C1=C(C)N=c2s/c(=C\c3cc(Br)c(O)c(OC)c3)c(=O)n2C1c1cccs1 (stereo not drawn)	-18	77*
CCOC(=O)C1=C(C)N=c2s/c(=C\c3cc(OC)c(OC)c(OC)c3)c(=O)n2C1c1ccc2c(c1)OCO2 (stereo not drawn)	-22	103
CCOC(=O)C1=C(C)N=c2s/c(=C\c3cc(Br)c(O)c(OC)c3)c(=O)n2C1c1ccc2c(c1)OCO2 (stereo not drawn)	-23	-57*
CCOC(=O)C1=C(C)N=c2s/c(=C\c3cc(Br)c(OC)cc3OC)c(=O)n2C1c1cccs1 (stereo not drawn)	-30	147
Cc1nc(/C(N)=N/O)c(C(F)(F)F)o1	-24	104
CCc1ccccc1Nc1cc(C(=O)NCc2ccco2)c2ccccc2n1	8	111
CCOc1c(OC)cc(/C=C2/C(=O)N(c3ccc(S(N)(=O)=O)cc3)N=C2C)cc1[N+](=O)[O-]	-10	95
COc1cc(/C=C2\C(=O)N(c3ccc(Cl)c(C(=O)O)c3)N=C2C)cc(OC)c1OC	63*	99
COc1cc(/C=C2\C(=O)N(c3ccc(S(N)(=O)=O)cc3)N=C2C)cc(Cl)c1OCc1ccccc1	61*	96
COc1cc(Br)c(/C=C2\C(=O)N(c3ccc(Cl)c(C(=O)O)c3)N=C2C)cc1OC	nt	112
CC(=O)OCC1OC(n2cc(Br)c(=O)[nH]c2=O)C(OC(C)=O)C1OC(C)=O (stereo not drawn)	nt	110
CC1(C)CC2CC(C)(CN2C(=O)COC(=O)c2ccc3c(c2)OCCO3)C1 (stereo not drawn)	-6	nt
Cc1ccc(CNC(=O)Cn2c(=O)n(CCCCC(=O)NC(C)C)c(=O)c3ccccc32)cc1	-29	101
O=c1oc2cc(O)ccc2cc1-c1nc(-c2ccccc2F)no1	-30	-62*
O=c1oc2cc(O)ccc2cc1-c1csc(-c2ccccc2Cl)n1	5	112
O=C(CSc1nc(-c2ccccc2)cc(-c2ccccc2)n1)N=C1NC(=O)CS1	3	116
COc1ccc(-c2noc(N3CCC(C(=O)N4CCN(C5CCCCC5)CC4)CC3)n2)cc1OC	nt	102
CCOC(=O)c1c(C)sc(-c2c(-c3cccc(Cl)c3)[nH]c3c2c(=O)n(C)c(=O)n3C)c1O	-25	-63*
CCOC(=O)c1c(C)sc(-c2c(-c3cc(C)ccc3C)[nH]c3c2c(=O)n(C)c(=O)n3C)c1O	15	195
CCOC(=O)C1=C(O)/C(=C/c2ccc(N3CCOCC3)o2)SC1=Nc1ccc(OCC)cc1	-22	-15*
CCOC(=O)C1=C(O)/C(=C/c2ccc(OCC)cc2)SC1=Nc1ccccc1	nt	112
Cc1occc1C(=O)N/N=C/c1ccc(C(C)(C)C)cc1	-22	110
Oc1ccc(C=Nc2cccc(C(F)(F)F)c2)c(O)c1	8	110
Oc1ccc(C=Nc2ccc(Nc3ccccc3)cc2)c(O)c1	2	6.8*
CN(C)c1ccc(N2C(=O)CC(NNc3ccccc3)C2=O)cc1 (stereo not drawn)	-61	99
CC(C)c1ccc(N2C(=O)N3CCCN3C2c2ccccc2)cc1 (stereo not drawn)	4	97
Cc1c(C#N)c2nc3ccccc3n2c(=O)/c1=C\Nc1cccc(NC(=O)c2ccccc2)c1	nt	-67*
Cc1c(C#N)c2nc3ccccc3n2c(=O)/c1=C\Nn1cnnc1	nt	118
CCOC(=O)c1sc2nc(SCC(=O)NCc3ccco3)n(Cc3ccccc3OC)c(=O)c2c1C	nt	107
O=C(O)COCC(=O)Nc1ccc2c(c1)oc1ccccc12	nt	104
O=C(O)CCC(=O)Nc1ccc2c(c1)oc1ccccc12	52*	105
COc1ccc(NC(=O)c2ccc(-n3cnc4c(sc5nc(C)cc(C)c54)c3=O)cc2)cc1Cl	nt	92

# Record cards, from the list above. Order of screens: HCMV NEC inh	GIV-Gai inh
# Shown for O=C(O)COCC(=O)Nc1ccc2c(c1)oc1ccccc12 : nt	104
# Shown for O=C(O)CCC(=O)Nc1ccc2c(c1)oc1ccccc12 : 52*	105
# Shown for CCOC(=O)C1=C(C)N=c2s/c(=C\c3cc(Br)c(OC)cc3OC)c(=O)n2C1c1cccs1 (stereo not drawn) : -30	147
# Shown for Oc1ccc(C=Nc2ccc(Nc3ccccc3)cc2)c(O)c1 : 2	6.8*
# Shown for CC(C)c1ccc(N2C(=O)N3CCCN3C2c2ccccc2)cc1 (stereo not drawn) : 4	97

# Continued.
structure	HCMV NEC inh	GIV-Gai inh
CN(C)CCCNCc1ccco1	-9	99
CN(C)CCCNCc1cccn1C	33*	106
Cc1cc(C(=O)O)ccc1-n1c(C)ccc1C	34*	97
Cc1ccc(C(=O)O)cc1-n1c(C)ccc1-c1ccccc1	6	103
Cc1c(C(=O)O)oc2c1-c1[nH]ncc1CC2	61*	98
Cc1cc(C)cc(NC(=O)c2oc3c(c2C)-c2[nH]ncc2CC3)c1	nt	110
COc1ccc(C2=CC(C3CC3)=C(C#N)C(=C(C#N)C#N)N2)cc1	-65	65*
CN(C)c1ccc(C2=CC(C3CC3)=C(C#N)C(=C(C#N)C#N)N2)cc1	11	105
Cc1ccccc1-c1nn2c(=O)cc(N3CCN(S(=O)(=O)Cc4ccccc4)CC3)nc2s1	-9	101
